Drawing on patent US20060019329A1, “Method of screening for protein inhibitors and activators” (priority 1988, published 2006), this text covers Kd for one compound.

Sequences of proteins named here, by UniProt entry; tags and fusion partners are left off. Residues count along the entry.
UniProt P68403, 2-671: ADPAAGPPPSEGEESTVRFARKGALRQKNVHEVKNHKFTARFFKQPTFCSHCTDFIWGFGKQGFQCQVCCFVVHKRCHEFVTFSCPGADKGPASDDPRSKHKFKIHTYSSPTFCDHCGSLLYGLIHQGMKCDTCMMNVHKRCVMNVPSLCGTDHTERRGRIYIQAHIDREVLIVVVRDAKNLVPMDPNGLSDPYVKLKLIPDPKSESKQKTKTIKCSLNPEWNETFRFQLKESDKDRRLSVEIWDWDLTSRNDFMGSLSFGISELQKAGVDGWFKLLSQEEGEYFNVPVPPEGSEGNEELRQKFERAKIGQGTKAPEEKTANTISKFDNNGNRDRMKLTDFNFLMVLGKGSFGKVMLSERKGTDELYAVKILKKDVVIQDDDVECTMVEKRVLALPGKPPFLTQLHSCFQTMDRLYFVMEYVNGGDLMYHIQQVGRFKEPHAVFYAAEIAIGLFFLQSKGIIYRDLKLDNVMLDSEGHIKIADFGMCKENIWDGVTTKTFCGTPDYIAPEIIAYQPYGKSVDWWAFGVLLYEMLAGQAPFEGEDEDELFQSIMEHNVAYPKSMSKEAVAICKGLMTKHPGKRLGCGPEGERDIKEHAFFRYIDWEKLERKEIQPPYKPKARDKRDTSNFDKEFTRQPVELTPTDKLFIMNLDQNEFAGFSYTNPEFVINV

The target of the test is high affinity phorbol-ester binding sites (PKC) (Rattus norvegicus, UniProt P68403). Particulars: read-out: affinity constant (Kd) of phorbol ester binding; R6-PKC3 cell line; intact cells; Scatchard; approximately the same in both cell lines.

For orientation: Kd means the concentration at which binding is half-saturated.

In the case of `CCCC(=O)O[C@@H]1[C@@H](C)[C@@]2(O)[C@@H](C=C(CO)C[C@]3(O)C(=O)C(C)=C[C@@H]23)[C@@H]2C(C)(C)[C@]12OC(=O)CCC` [3H-PDBu], the Kd worked out at 16 nM.
